Measurements: patent US20090263341A1, “SOFT ANTICHOLINERGIC ESTERS” (priority 2005, published 2009)
Several values for one entry are separate records, joined by “and”; a condition that tells them apart may be missing. Identical values can stand only once.

Amino acid sequences for entries named in this document (tags omitted). A change or cut given only in a name is not applied to a line headed by its entry.
UniProt P08482: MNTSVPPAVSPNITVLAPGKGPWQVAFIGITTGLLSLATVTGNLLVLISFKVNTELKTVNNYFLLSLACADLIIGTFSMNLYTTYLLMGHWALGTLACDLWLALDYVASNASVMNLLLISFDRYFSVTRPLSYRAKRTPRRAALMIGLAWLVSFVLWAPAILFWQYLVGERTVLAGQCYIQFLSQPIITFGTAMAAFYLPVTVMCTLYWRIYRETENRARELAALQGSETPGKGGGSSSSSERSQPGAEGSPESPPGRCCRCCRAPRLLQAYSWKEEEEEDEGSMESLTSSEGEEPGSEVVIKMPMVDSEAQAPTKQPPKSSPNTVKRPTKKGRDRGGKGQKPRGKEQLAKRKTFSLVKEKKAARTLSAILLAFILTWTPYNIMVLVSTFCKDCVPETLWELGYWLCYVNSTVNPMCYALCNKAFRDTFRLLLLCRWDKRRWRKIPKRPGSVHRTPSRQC
UniProt P20309, whole entry, looked up: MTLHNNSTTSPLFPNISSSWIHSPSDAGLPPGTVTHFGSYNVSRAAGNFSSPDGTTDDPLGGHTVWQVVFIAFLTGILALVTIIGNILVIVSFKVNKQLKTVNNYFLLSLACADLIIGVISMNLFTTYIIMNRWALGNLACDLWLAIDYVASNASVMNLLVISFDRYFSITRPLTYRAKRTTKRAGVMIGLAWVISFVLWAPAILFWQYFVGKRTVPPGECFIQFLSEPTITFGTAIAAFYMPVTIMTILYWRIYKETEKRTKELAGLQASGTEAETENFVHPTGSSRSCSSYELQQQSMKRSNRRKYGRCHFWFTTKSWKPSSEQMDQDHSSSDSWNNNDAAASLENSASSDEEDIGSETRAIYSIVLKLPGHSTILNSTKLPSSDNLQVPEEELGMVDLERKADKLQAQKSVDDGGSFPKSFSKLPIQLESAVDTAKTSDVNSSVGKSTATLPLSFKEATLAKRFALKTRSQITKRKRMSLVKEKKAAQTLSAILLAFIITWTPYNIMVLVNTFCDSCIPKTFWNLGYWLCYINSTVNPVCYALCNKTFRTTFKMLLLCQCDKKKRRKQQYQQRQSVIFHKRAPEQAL
UniProt P08173, whole entry, looked up: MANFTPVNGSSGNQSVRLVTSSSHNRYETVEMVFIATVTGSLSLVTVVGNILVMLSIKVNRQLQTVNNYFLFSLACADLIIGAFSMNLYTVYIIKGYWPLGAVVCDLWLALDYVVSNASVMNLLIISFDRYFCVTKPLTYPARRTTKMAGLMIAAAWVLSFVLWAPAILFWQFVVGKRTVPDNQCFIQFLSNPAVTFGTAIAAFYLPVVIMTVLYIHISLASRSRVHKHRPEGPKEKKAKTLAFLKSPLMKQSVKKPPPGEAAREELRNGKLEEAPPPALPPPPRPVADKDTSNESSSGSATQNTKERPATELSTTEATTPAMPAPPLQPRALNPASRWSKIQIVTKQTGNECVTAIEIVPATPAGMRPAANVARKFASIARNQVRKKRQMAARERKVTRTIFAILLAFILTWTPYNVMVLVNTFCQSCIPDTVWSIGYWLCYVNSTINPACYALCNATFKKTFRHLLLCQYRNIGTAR
UniProt P08172, whole entry, looked up: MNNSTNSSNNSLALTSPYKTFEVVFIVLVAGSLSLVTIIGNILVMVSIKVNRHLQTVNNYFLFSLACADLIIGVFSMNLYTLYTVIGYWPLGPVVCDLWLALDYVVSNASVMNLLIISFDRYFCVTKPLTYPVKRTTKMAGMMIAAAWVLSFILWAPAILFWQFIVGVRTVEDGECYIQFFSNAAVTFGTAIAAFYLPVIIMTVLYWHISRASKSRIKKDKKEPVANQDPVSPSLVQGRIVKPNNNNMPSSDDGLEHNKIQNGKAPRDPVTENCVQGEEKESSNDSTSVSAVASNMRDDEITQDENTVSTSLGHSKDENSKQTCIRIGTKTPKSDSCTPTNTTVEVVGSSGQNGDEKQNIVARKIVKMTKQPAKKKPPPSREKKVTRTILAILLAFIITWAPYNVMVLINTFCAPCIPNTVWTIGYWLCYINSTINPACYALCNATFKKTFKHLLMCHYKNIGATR
UniProt P11229: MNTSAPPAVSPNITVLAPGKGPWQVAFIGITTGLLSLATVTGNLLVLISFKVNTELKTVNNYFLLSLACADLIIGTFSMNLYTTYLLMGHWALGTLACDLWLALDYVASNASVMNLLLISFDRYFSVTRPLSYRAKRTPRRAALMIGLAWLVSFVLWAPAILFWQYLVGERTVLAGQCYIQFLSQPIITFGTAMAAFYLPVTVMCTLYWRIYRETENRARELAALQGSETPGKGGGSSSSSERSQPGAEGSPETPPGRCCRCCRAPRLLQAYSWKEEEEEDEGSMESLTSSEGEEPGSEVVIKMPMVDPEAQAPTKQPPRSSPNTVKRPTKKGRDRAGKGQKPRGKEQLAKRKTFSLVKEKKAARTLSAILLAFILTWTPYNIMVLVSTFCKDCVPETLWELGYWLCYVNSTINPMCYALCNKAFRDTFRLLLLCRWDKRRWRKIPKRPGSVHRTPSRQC

What was measured:
[1] = molecular target: muscarinic receptors (mainly M1) of rat brain cortex membranes (Rattus norvegicus, UniProt P08482); assay: Receptor binding, [3H]QNB, rat cortical membrane preparation; details: Table 8; for Ki: read-out: Ki (nM), Average ± SD, [3H]QNB, rat cortical membranes
[2] = tested on: acetylcholine-induced bronchoconstriction; assay: Acetylcholine induced bronchoconstriction in anesthetized guinea pigs; assay type: in vivo, guinea pig; details: 0.1 mg/kg intratracheally
[3] = tested on: guinea pig tracheal rings; assay: Guinea pig trachea assay, pA2 against carbachol (Schild plot); details: tissue from four animals
[4] = tested on: guinea pig ileum longitudinal muscle strips; assay: Guinea pig ileum longitudinal muscle assay, pA2 against acetylcholine (Schild plot); details: tissue samples from four animals
[5] = molecular target: cloned human muscarinic receptor subtype M3 (Homo sapiens, UniProt P20309); assay: Receptor binding, [3H]NMS, cloned human muscarinic receptor M3; details: for receptor binding affinity pKi, M3: mean ± SD of 3 experiments; for Hill slope, M3: numbers in parentheses
[6] = molecular target: cloned human muscarinic receptor subtype M4 (Homo sapiens, UniProt P08173); assay: Receptor binding, [3H]NMS, cloned human muscarinic receptor M4; details: for receptor binding affinity pKi, M4: mean ± SD of 3 experiments; for Hill slope, M4: numbers in parentheses
[7] = molecular target: cloned human muscarinic receptor subtype M2 (Homo sapiens, UniProt P08172); assay: Receptor binding, [3H]NMS, cloned human muscarinic receptor M2; details: for receptor binding affinity pKi, M2: mean ± SD of 3 experiments; for Hill slope, M2: numbers in parentheses
[8] = tested on: guinea pig ileum (M3 muscarinic receptors); assay: Guinea pig ileum contraction assay, pA2 against carbachol; details: carbachol as agonist, 4-6 strips, mean ± SD
[9] = tested on: cloned human muscarinic receptor subtypes M1-M4; assay: Receptor binding at cloned human muscarinic receptors, values stated across subtypes (ranges, M3/M2 selectivity)
[10] = In vitro stability in rat blood; details: 37° C., pH 7.4
[11] = molecular target: cloned human muscarinic receptor subtype M1 (Homo sapiens, UniProt P11229); assay: Receptor binding, [3H]NMS, cloned human muscarinic receptor M1; details: for receptor binding affinity pKi, M1: mean ± SD of 3 experiments; for Hill slope, M1: numbers in parentheses
rabbit eyes (pupil size) [12] = assay: Mydriatic effect of soft glycopyrrolates in rabbit eyes; set-up: AUC^eff(0-144 h): unit not given beside the values; details: for Rmax (%): 100 μl topical, % change in pupil size at 1 h
[13] = In vitro stability in rat plasma; details: 37° C., pH 7.4
[14] = Elimination after i.v. administration in rats
rabbit eyes (pupil size) [15] = assay: In vivo mydriatic studies of zwitterionic isomers in rabbit eyes; set-up: AUC^eff0-168 h: unit not given beside the values; details: for Rmax (%): 0.1 mL topical, maximum % change in pupil size

Row | SMILES | Hill slope [1] | Ki [1] [nM] | receptor binding affinity pKi, M3 [5] | Hill slope, M3 [5] | receptor binding affinity pKi, M4 [6] | Hill slope, M4 [6] | receptor binding affinity pKi, M2 [7] | Hill slope, M2 [7] | Selectivity M3/M2 (affinity ratio) [9] [times] | receptor binding affinity pKi, M1 [11] | Hill slope, M1 [11] | other results
1 | CCCCCCOC(=O)C[N@+]1(C)CC[C@@H](OC(=O)[C@](O)(c2ccccc2)C2CCCC2)C1 | −1.24 ± 0.04 | 15 | – | – | – | – | – | – | – | – | – | effect on acetylcholine-induced bronchoconstriction [2]: protective effect
2 | CCCCCCOC(=O)C[N@@+]1(C)CC[C@H](OC(=O)[C@](O)(c2ccccc2)C2CCCC2)C1 | −1.19 ± 0.05 | 13 | – | – | – | – | – | – | – | – | – | pA2, Trachea [3]: 8.21; pA2, Ileum [4]: 8.14
3 | CCOC(=O)C[N+]1(C)CCC(OC(=O)C(O)(c2ccccc2)C2CCCC2)C1.[Br-] (racemic) | – | – | 7.54 ± 0.15 | (1.18 ± 0.08) | 7.94 ± 0.09 | (1.18 ± 0.09) | 7.32 ± 0.07 | (1.23 ± 0.06) | 1.8 ± 0.7 | 7.51 ± 0.17 | (0.91 ± 0.09) | pA2 [8]: 7.36 ± 0.34; half-life t1/2, min [10]: 1.62 h and 1.61 ± 0.0483 h; pseudo-first-order rate constant k × 10^−3, min^−1 [10]: 7.2 ± 0.2 × 10^−3 min^−1; AUC^eff(0-144 h) (rabbit eyes (pupil size) [12]; conc. 0.5%): 596 ± 274; Rmax (%) (rabbit eyes (pupil size) [12]; conc. 0.5%): 44.65 ± 13.99%; AUC^eff(0-144 h) (rabbit eyes (pupil size) [12]; conc. 1%): 645 ± 409; Rmax (%) (rabbit eyes (pupil size) [12]; conc. 1%): 58.33 ± 12.27%; half-life t1/2, min [13]: 0.733 h; pseudo-first-order rate constant k × 10^−3, min^−1 [13]: 15.8 ± 0.2 × 10^−3 min^−1
4 | C[N+]1(CC(=O)[O-])CCC(OC(=O)[C@](O)(c2ccccc2)C2CCCC2)C1 (stereo partly shown) | – | – | 8.12 ± 0.10 | (0.80 ± 0.01) | 8.23 ± 0.12 | (1.02 ± 0.10) | 7.48 ± 0.12 | (0.95 ± 0.11) | 4.4 ± 0.3 | 8.11 ± 0.16 | (1.12 ± 0.25) | t1/2 of excretion (unchanged, through urine) [14]: 0.167 to 0.25 h; pKi, range over subtypes M1-M4 [9]: 7.5-8.2; AUC^eff0-168 h (rabbit eyes (pupil size) [15]; conc. 0.01%): 73 ± 24; Rmax (%) (rabbit eyes (pupil size) [15]; conc. 0.01%): 31.00 ± 7.14%; AUC^eff0-168 h (rabbit eyes (pupil size) [15]; conc. 0.1%): 182 ± 40; Rmax (%) (rabbit eyes (pupil size) [15]; conc. 0.1%): 50.34 ± 7.92%
